Test results: patent US5597804A, “N-sulfonylarginine keto-amide compounds” (Corvas International, Inc., priority 1993, dated 1997)
pIC50, pKi: −log10 of the molar value. Each block holds one molecule with its values, some of them ahead of it.

Assays:
human α-thrombin [1] = target: T1, human α-thrombin (Homo sapiens, UniProt P00734); experiment: Thrombin assay, IC50 determination with substrate Pefachrome t-PA; settings: Table I, 30 minutes incubation at room temperature
Experimental: (§1) The ability of the compounds of the present invention to act as inhibitors of thrombin catalytic activity was assessed by determining their inhibition constant, Ki, and the concentration which inhibited enzyme activity by 50%, IC50, against thrombin.
(§2) Enzyme activity was determined using the chromogenic substrates, S2266 (H-D-valyl-L-leucyl-L-arginine-p-nitroaniline, obtained from Kabi Diagnostica) or Pefachrome t-PA (CH3 SO2 -D-hexahydrotyrosine-glycyl-L-Arginine-p-nitroaniline, obtained from Pentapharm Ltd.). The subtrates were reconstituted in deionized water prior to use. Purified human α-thrombin was obtained from Enzyme Research Laboratories, Inc. The buffer used for all assays was HBSA (10 mM HEPES, pH 7.5, 150 mM sodium chloride, 0.1% bovine serum albumin).
IC50 determinations were conducted where HBSA (50 mL), α-thrombin (50 μl) and inhibitor (50 μl) (covering a broad concentration range), were combined in appropriate wells and incubated for 30 minutes at room temperature prior to the addition of substrate Pefachrome-t-PA (50 μl). The initial velocity of Pefachrome t-PA hydrolysis was measured by the change in absorbance at 405 nm using a Thermo Max® Kinetic Microplate Reader over a 5 minute period in which less than 5% of the added substrate was utilized. The concentration of added inhibitor which caused a 50% decrease in the initial rate of hydrolysis was defined as the IC50 value.

human α-thrombin [2] = target: T1, human α-thrombin; experiment: Thrombin assay, Ki determination with chromogenic substrate S-2266
Experimental: as §1, §2
The assay for Ki determinations was conducted by combining in appropriate wells of a Corning microtiter plate, 50 mL of HBSA, 50 mL of the test compound at a specified concentration diluted in HBSA (or HBSA alone for Vo (uninhibited velocity) measurement), and 50 mL of the chromogenic substrate S-2266 at a specified concentration diluted in HBSA. At time zero, 50 mL of α-thrombin diluted in HBSA, was added to the wells yielding a final concentration of 0.5 nM in a total volume of 200 mL. Velocities of S-2266 substrate hydrolysis which occurred over a designated time period was measured by the change in absorbance at 405 nm using a Thermo Max® Kinetic Microplate Reader.
The extent of substrate hydrolysis was less than 5% over the course of this assay. 2) For test compounds showing rapid, reversible kinetics of inhibition, Ki values were determied from initial velocities using the relationships developed by Dixon, M., Biochem. J., 129: 197 (1972).

[3] = system: Harlan Sprague Dawley rats; experiment: Extracorporeal shunt model in rats; settings: mean ± S.E.M. (n = 6)
From the text: Extracorporeal Shunt Model in Rats
This is one of the most common and generally used models in the evaluation of antithrombotic compounds. Smith, J. R. and White, A. M. Br. J. Pharmacol., 77: 29-38 (1982). In this model a localized clot made up of primarily fibrin with some platelet and macrophage involvement (Shand, R. A. and Smith, J. R. and Wallis, R. B. Thromb. Res., 36: 223-232 (1984)), is formed on an artificial thrombogenic surface (typically a segment of silk or cotton thread) contained in a sialstic chamber which is part of an exteriorized shunt between the carotid artery and jugular vein.
The effect of the compound of Example 8 on the formation of a thrombus on the thrombogenic surface was measured using clot weight as the primary end point in the model.
Male Harlan Sprague Dawley rats (420-450 g) were acclimated at least 72 hours prior to use. The animals were fasted for 12 hours prior to surgery with free access to water. The animals were anesthetized with a sodium pentobarbital (Nembutal) given intraperitoneally at a dose of 50 mg/kg body weight and placed on a isothermal pad to maintain body temperature. The level of anesthesia was monitored every 15 minutes by: neuro-response to a tail pinch, respiration and core temperature. The desired depth of surgical anesthesia was maintained by administering subsequent doses (5 mg/kg) intravenously. The left femoral artery was catheterized using standard procedures for blood pressure monitoring and blood sampling, with polyethylene tubing (PE50). The left and right femoral veins were catheterized with PE50 tubing for delivery of anethestic and test compounds, respectively.
Following surgery the animals were randomized in either a control (saline infusion) or treatment group (Compound of Example 8) with at least 6 animals per group per dose. […] Blood pressure, heart rate core temperature and respiration were monitored continuously. […] The clot was immediately weighed and recorded. […]

[4] = system: Harlan Sprague Dawley rats; experiment: Rat model of FeCl3-induced platelet-dependent arterial thrombosis; settings: for Clot size: [isolated clot/(intact segment-empty segment)] × 100, mean ± S.E.M. (n = 6); for Incidence of Occlusion: zero blood flow in carotid segment, 60 minutes observation
From the text: Rat model of FeCl3 -induced platelet-dependent arterial thrombosis
This is a well characterized model of platelet dependent, arterial thrombosis which has been used in the evaluation potential antithrombotic compounds such as direct thrombin inhibitors. Kurz, K. D., Main, B. W., and Sandusky, G. E., Thromb. Res., 60: 269-280 (1990). […] In this model a platelet-rich, occlusive thrombus is formed in a segment of the rat carotid artery treated with a fresh solution of FeCl3 absorbed to a piece of filter paper. The FeCl3 is thought to diffuse into the treated segment of artery and causes de-endothelialization resulting in thrombus formation. The effect of a test compound on the incidence of occlusive thrombus formation following the application of the FeCl3 is monitored by ultrasonic flowtometry and is used as the primary end point. The use of flowtometry is a modification of the original procedure in which thermal detection of clot formation was employed. Kurz, K. D., Main, B. W., and Sandusky, G. E., Thromb. Res., 60: 269-280 (1990).
Male Harlan Sprague Dawley rats (420-450 g) were acclimated at least 72 hours prior to use and fasted for 12 hours prior to surgery with free access to water. The animals were prepared, anesthetized with Nembutal with catheters for blood pressure monitoring, drug and anesthesia delivery being implanted as described above. The left carotid artery was isolated by making a midline cervical incision followed by blunt dissection and spreading techniques to separate a 2 cm segment of the vessel from the carotid sheath. A silk suture is inserted under the proximal and distal ends of the isolated vessel to provide clearance for the placement of a ultrasonic flow probe (Transonic) around the proximal end of the vessel. The probe is then secured with a stationary arm.
Following surgery the animals were randomized in either a control (saline infusion) or treatment group with test compound (Compound of Example 8) with at least 6 animals per group per dose. The test compounds were administered as described above after placement of the flow probe and stabilization of the preparation for a period of 30 min prior to the thrombogenic stimulus. At t=0, a 3 mm diameter piece of filter paper (Whatman #3) soaked with […] of a 35% solution of fresh FeCl3 (made up in water) was applied the segment of isolated carotid artery distal to the flow probe. Blood pressure, blood flow, heart rate, and respiration were monitored for 60 minutes.
The incidence of occlusion (defined as the attainment of zero blood flow) was recorded as the primary end point. Following the 60 minute observation period the flow probe was removed and the area cleared of all excess fluid. The distal and proximal sutures were tied off and arterial clamps placed on the far proximal and distal ends of the segment. The isolated segment was cut out, blotted dry on filter paper and weighed. The segment was re-weighed following removal of the clot and the difference recorded as total % clot weight. The animals were euthanized as described above.

[5] = Table I, substrate S-2266, HBSA pH 7.5, 0.5 nM α-thrombin
[6] = Group1: 0.5 mg/kg i.v. bolus + 20 μg/kg/min i.v. infusion
[7] = Group2: 0.5 mg/kg i.v. bolus + 50 μg/kg/min i.v. infusion
[8] = Group3: 0.5 mg/kg i.v. bolus + 100 μg/kg/min i.v. infusion

pIC50 (human α-thrombin [1]): 9.43
Structure (SMILES): CS(=O)(=O)CC[C@H](NS(=O)(=O)Cc1ccccc1)C(=O)N1CCC[C@H]1C(=O)N[C@@H](CCCNC(=N)N)C(=O)C(=O)NCCc1ccccc1

pIC50 (human α-thrombin [1]): 9.15
pKi (human α-thrombin [2]; human α-thrombin): 8.82
Structure (SMILES): CCCC(CCC)C(=O)N[C@@H](CC(=O)O)C(=O)N1CCC[C@H]1C(=O)N[C@@H](CCCNC(=N)N)C(=O)C(=O)NCCc1ccccc1

pIC50 (human α-thrombin [1]): 9.38
Structure (SMILES): CS(=O)(=O)CC[C@H](NS(=O)(=O)c1ccc2ccccc2c1)C(=O)N1CCC[C@H]1C(=O)N[C@@H](CCCNC(=N)N)C(=O)C(=O)NCCc1ccccc1

pIC50 (human α-thrombin [1]): 8.19
pKi (human α-thrombin [2]; human α-thrombin): 8.26
Structure (SMILES): CC(C)(C)OC(=O)N[C@@H](CC(=O)O)C(=O)N1CCC[C@H]1C(=O)N[C@@H](CCCNC(=N)N)C(=O)C(=O)NCCCc1ccccc1

pIC50 (human α-thrombin [1]): 9.44
pKi (human α-thrombin [2]; [5]): 10.05
Structure (SMILES): CCCC(CCC)C(=O)N[C@@H](CCS(C)(=O)=O)C(=O)N1CCC[C@H]1C(=O)N[C@@H](CCCNC(=N)N)C(=O)C(=O)NCCc1ccccc1

pIC50 (human α-thrombin [1]): 9.32
pKi (human α-thrombin [2]; [5]): 10.21
Structure (SMILES): CCCC(CCC)C(=O)N[C@@H](CC(=O)OC)C(=O)N1CCC[C@H]1C(=O)N[C@@H](CCCNC(=N)N)C(=O)C(=O)NCCc1ccccc1

pIC50 (human α-thrombin [1]): 8.66
pKi (human α-thrombin [2]; [5]): 7.96
Structure (SMILES): CC(C)(C)OC(=O)N[C@@H](CC(=O)O)C(=O)N1CCC[C@H]1C(=O)N[C@@H](CCCNC(=N)N)C(=O)C(=O)NCCc1ccccc1
Clot size [3, 6]: 38.37 ± 4.49 mg
Clot size [3, 7]: 17.22 ± 1.79 mg
Clot size [3, 8]: 10.20 ± 0.636 mg
Clot size [4, 6]: 40.73 ± 8.0%
Incidence of Occlusion [4, 6]: 5/6
Clot size [4, 7]: 12.56 ± 5.96%
Incidence of Occlusion [4, 7]: 1/6
Clot size [4, 8]: 4.46 ± 3.49%
Incidence of Occlusion [4, 8]: 0/6
